Laboratory results published in ChEMBL document CHEMBL6096722, “A Hypoxia-Activated BODIPY-Azo Anticancer Prodrug for Bimodal Chemo-Photodynamic Therapy” (J Med Chem, 2025).

Assay: Retention time of the compound by HPLC-MASS analysis
Format: physicochemical

Molecule ClCCN(CCCl)c1ccccc1 has a Retention time of 3.3 min.
